# Antibody variant affinities, Ab-14 heavy chain, assay 1

Data: MIT Lincoln Laboratory AlphaSeq set, Engelhart et al. 2022, doi:10.1038/s41597-022-01779-4, as distributed in FLAb.

Target peptide (SARS-CoV-2 spike, HR2 region): PDVDLGDISGINAS

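Phage display of a naive human antibody library on the peptide gave the parent. Variants in AAYL49 differ from the parent at up to three CDR positions; double and triple changes were sampled at random. AlphaSeq pools MATa yeast showing the antibodies with MATalpha yeast showing the peptide. Mating (16 h, 30 °C) was followed by selection of diploids and sequencing of their barcodes. Read counts were normalised to the haploid input and turned into Kd by a linear fit to BCL2-family pairs of known affinity, for each replicate. The assay was run in three technical replicates.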

Parent scFv Ab-14: VH joined to VL by a (GGGGS)3 linker. Changes lie in the heavy chain CDRs alone.
VH: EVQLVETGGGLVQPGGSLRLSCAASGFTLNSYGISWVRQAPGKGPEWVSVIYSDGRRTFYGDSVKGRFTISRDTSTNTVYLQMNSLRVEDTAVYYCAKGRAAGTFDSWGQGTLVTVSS
VL: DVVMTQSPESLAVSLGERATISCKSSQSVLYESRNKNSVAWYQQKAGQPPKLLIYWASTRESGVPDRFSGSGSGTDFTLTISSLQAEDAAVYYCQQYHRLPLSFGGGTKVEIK

The parent's heavy chain CDRs are GFTLNSYGIS, VIYSDGRRTFYGDSVK, GRAAGTFDS; each variant's own CDRs replace them letter for letter. Values are log10 of the apparent Kd in nM; lower means stronger binding. Averages over replicates are reported, and they cover detected replicates only. Where no diploid with the target was found in that replicate, the entry reads "ND": below detection, most likely a poor binder, though not proof of it. Nonspecific signal, from three strains lacking the peptide, appeared in 15% of pairings of library AAYL49, centred on 4.06 (5% of these signals below 2.83); values are not corrected for it. The control count says in how many pairings with the empty strains this scFv gave a signal, with their mean in brackets.

| CDR-H1 | CDR-H2 | CDR-H3 | replicates, log10 nM | mean, log10 nM | control signals |
|---|---|---|---|---|---|
| GFTLNSYGIS | EIYSDGRRTTYGDSVK | CRAAGTFDS | ND ND ND | ND | 0 of 9 |
| GFDLNSYGIS | VIYSDGRNTHYGDSVK | GRAAGTFDS | 2.00 2.23 2.88 | 2.37 | 1 of 9 (5.09) |
| GFTINSYGIS | VFHSDGRRTFYGDSVK | GRAAGTFDS | 6.19 ND ND | 6.19 | 2 of 9 (5.00) |
| GFTLNSYGCH | VIYSDGRRYFYGDSVK | GRAAGTFDS | ND ND ND | ND | 0 of 9 |
| GFTLNSYGHS | VIYSDTRRTFEGDSVK | GRAAGTFDS | ND ND ND | ND | 0 of 9 |
| GFTLNSYKIS | VIYSDGRRTFYGDSVK | GMRAGTFDS | ND ND ND | ND | 0 of 9 |
| GFTLNSYGIS | VNERDGRRTFYGDSVK | GRAAGTFDS | 4.67 ND ND | 4.67 | 5 of 9 (4.66) |
| GFTLNSYGIS | VIYSDGRCTFPGDSVK | GRAASTFDS | ND ND ND | ND | 0 of 9 |
| GFTLNSYVIS | VIYSDGRRKFYGDSVK | GRAAGTFDS | ND ND ND | ND | 0 of 9 |
| GFTLNSYEIS | VIHSDGRRTFYGDSVK | GSAAGTFDS | 4.97 3.20 3.51 | 3.89 | 1 of 9 (3.68) |
| GFTLNDYIIS | VIYSDGRRTFYGDSVK | GRAAGMFDS | ND ND ND | ND | 0 of 9 |
| GFTLNSYGIS | VVYSDGRRTHYGASVK | GRAAGTFDS | 5.20 ND ND | 5.20 | 1 of 9 (2.90) |
| GFTLNSYGIS | VIYSDGRRTRYDDSEK | GRAAGTFDS | ND ND ND | ND | 2 of 9 (4.30) |
| GFTLNSYGIK | VIYSDGRRTFYGDSKK | GRARGTFDS | ND 4.56 ND | 4.56 | 2 of 9 (2.84) |
| GFTLNSYGIS | VIYSMGRRTFPGDSVF | GRAAGTFDS | ND 3.44 ND | 3.44 | 1 of 9 (4.58) |
| GFTKNSYGIS | VIYSDGRRTFYGDSVK | GEAAGTFDK | 2.80 4.71 2.59 | 3.37 | 0 of 9 |
| PFTLNGHGIS | VIYSDGRRTFYGDSVK | GRAAGTFDS | 1.78 1.30 1.17 | 1.42 | 0 of 9 |
| GFTLFSYLIS | VMYSDGRRTFYGDSVK | GRAAGTFDS | 3.62 2.91 4.24 | 3.59 | 6 of 9 (4.32) |
| GFTLNTYGIS | VIYSDGRRCFYGDSTK | GRAAGTFDS | ND ND 3.27 | 3.27 | 1 of 9 (3.28) |
| LFMLNSYGIS | VIYSDGRRTFYGDSCK | GRAAGTFDS | ND 3.52 ND | 3.52 | 2 of 9 (3.76) |
| GFTLNSYGIS | VIYSDGRRTFYGDKVK | GVAAGTCDS | ND ND 4.28 | 4.28 | 1 of 9 (3.59) |
| GFTLNSEIIS | VFYSDGRRTFYGDSVK | GRAAGTFDS | ND ND ND | ND | 1 of 9 (4.58) |
| GFTLNSYGIK | LIYSDGRRTFYGTSVK | GRAAGTFDS | ND 4.83 3.21 | 4.02 | 2 of 9 (4.89) |
| GFTLNSYGIS | VHYSDGKRVFYGDSVK | GRAAGTFDS | 3.80 3.49 ND | 3.65 | 7 of 9 (4.56) |
| GFTLNSYMIS | VIYSDGYRTFYPDSVK | GRAAGTFDS | ND ND ND | ND | 1 of 9 (4.19) |
| GFTLNSYGIS | VIMSDGRRTFYGDKGK | GRAAGTFDS | ND ND ND | ND | 0 of 9 |
| GFTLNSYGIS | VIYSDGRRTFYGDSLK | SRTAGTFDS | ND ND ND | ND | 0 of 9 |
| GFTLNSYGIS | AYYSDGRRTFYGESVK | GRAAGTFDS | ND ND ND | ND | 0 of 9 |
| GFTLNSYQIS | VIYSDGRRTFYGQSVI | GRAAGTFDS | ND ND ND | ND | 0 of 9 |
| GFTLNSYGIS | VIYSDGGRTIYGDSVG | GRAAGTFDS | ND ND ND | ND | 0 of 9 |
| GFTLNSYGIS | VICSDGRRTFSGLSVK | GRAAGTFDS | 4.02 ND 5.11 | 4.57 | 3 of 9 (4.34) |
| GFTLNSYGIS | VWYSDGRTTAYGDSVK | GRAAGTFDS | ND ND ND | ND | 0 of 9 |
| GFTLNGNGIS | VIYQDGRRTFYGDSVK | GRAAGTFDS | ND 3.73 ND | 3.73 | 2 of 9 (4.10) |
| GFTLNSHGIS | VIYSDGHRTFYGDSVK | GRAAGTFDS | ND ND ND | ND | 0 of 9 |
| GFTLNSYGIS | VIYSDGRRTFYGDSVK | GRAFGTFKS | ND ND ND | ND | 0 of 9 |
| GFTLNSYGIS | VIYSDGRRTFYGDSVK | GRAAGSYDS | 1.51 1.51 1.35 | 1.46 | 5 of 9 (3.63) |
| GFPLNSYGIS | NIYSDGRRTFYGDSVK | GRAAGNFDS | ND ND 3.91 | 3.91 | 2 of 9 (3.65) |
| GFTLNSYGIS | VHYSDGDRTFYGDSVH | GRAAGTFDS | ND ND ND | ND | 2 of 9 (3.54) |
| GFTLNSYGIS | VIYSDGRRTFYGESVK | FRAAGTFDS | 3.94 4.64 4.99 | 4.52 | 5 of 9 (4.50) |
| GFTLNSYGIS | VIYSDGRRTFRGDSVK | GRAAGTFSS | ND 3.55 ND | 3.55 | 2 of 9 (3.66) |

A selection of 4 entries from above:

CDR-H1,CDR-H2,CDR-H3,"replicates, log10 nM","mean, log10 nM",control signals
GFTLNSYGIS,VHYSDGDRTFYGDSVH,GRAAGTFDS,ND ND ND,ND,2 of 9 (3.54)
GFTLNSYMIS,VIYSDGYRTFYPDSVK,GRAAGTFDS,ND ND ND,ND,1 of 9 (4.19)
GFTLNGNGIS,VIYQDGRRTFYGDSVK,GRAAGTFDS,ND 3.73 ND,3.73,2 of 9 (4.10)
GFTLNTYGIS,VIYSDGRRCFYGDSTK,GRAAGTFDS,ND ND 3.27,3.27,1 of 9 (3.28)